Values of other authors in US9005905B2, “Method of identifying transmembrane protein-interacting compounds” (Omeros Corporation, priority 2002, dated 2015).

Chains of the proteins cited; added tags and fusions are not shown.
UniProt P35372, whole entry: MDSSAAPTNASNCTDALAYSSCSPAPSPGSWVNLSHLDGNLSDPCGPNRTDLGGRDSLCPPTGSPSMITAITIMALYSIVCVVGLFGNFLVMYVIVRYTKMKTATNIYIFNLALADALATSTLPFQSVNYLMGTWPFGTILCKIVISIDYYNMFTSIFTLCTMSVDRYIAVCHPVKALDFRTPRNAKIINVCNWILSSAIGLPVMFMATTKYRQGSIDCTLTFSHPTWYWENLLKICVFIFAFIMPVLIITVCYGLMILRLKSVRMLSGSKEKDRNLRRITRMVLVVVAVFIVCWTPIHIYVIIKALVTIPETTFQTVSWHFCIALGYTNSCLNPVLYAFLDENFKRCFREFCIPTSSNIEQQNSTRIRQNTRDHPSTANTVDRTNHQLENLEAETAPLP
UniProt P41143, whole entry: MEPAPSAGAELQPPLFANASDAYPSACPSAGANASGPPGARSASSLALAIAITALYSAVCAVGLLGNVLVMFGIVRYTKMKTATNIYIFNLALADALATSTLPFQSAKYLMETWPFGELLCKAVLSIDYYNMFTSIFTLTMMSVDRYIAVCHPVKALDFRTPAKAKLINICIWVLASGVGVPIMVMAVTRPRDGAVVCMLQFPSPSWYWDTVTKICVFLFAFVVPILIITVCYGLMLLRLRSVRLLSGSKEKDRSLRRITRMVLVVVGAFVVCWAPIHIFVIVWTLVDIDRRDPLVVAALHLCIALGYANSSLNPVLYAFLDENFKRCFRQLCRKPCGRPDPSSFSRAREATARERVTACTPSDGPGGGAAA

Target: mu and delta opioid receptors (Homo sapiens, UniProt P35372+P41143)
Details: cited from earlier work

| Substance | potency at co-expressed versus individual receptors | affinity at co-expressed versus individual receptors |
| --- | --- | --- |
| DPDPE | reduced potency | – |
| endomorphin-1 | – | enhanced affinity |
